Ki data for 1 molecule are collected here from ChEMBL document CHEMBL3808335, “Discovery of KLS-13019, a Cannabidiol-Derived Neuroprotective Agent, with Improved Potency, Safety, and Permeability” (ACS Med Chem Lett, 2016).

Protein sequences, listed by entry. Tags and fused reporters are not part of them.
UniProt P20272, whole entry: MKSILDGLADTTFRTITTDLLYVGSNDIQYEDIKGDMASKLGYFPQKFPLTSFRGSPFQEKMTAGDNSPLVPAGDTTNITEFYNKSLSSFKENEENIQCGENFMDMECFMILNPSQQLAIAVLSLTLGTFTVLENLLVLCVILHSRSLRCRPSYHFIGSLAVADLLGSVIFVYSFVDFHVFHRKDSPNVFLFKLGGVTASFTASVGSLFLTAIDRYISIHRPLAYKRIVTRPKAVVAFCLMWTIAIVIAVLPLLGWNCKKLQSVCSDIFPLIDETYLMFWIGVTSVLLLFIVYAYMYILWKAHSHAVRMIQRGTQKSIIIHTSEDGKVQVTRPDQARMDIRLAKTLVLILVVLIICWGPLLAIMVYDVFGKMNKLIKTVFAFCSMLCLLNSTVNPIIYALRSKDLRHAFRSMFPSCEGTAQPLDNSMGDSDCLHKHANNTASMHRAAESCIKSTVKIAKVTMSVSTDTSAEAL

The test concerns the target Cannabinoid receptor 1 (Rattus norvegicus, UniProt P20272). As to the kind of experiment: Displacement of [3H]-HU-243 from CB1 receptor in Sabra rat brain synaptosomes after 90 mins. It is filed as subcellular.

By Ki is commonly meant a measure of affinity in units of concentration, obtained from inhibition or displacement. Low values mean tighter binding, high ones weaker binding. As to `C=C(C)[C@@H]1CCC(C)=C[C@H]1c1c(O)cc(CCCCC)cc1O` [CANNABIDIOL], the Ki was over 10 µM.
